Test: Pharmacokinetics in male C57BL/6 mice, oral gavage once a day for 5 days
Settings: analyte d-R-pio in plasma, day 5; 15 mg/kg oral gavage daily

tmax d-R: 1 h
Compound: CCc1ccc(CCOc2ccc(C[C@H]3SC(=O)NC3=O)cc2)nc1

Reference: patent US11141411B2, “Methods of treating neurological, metabolic, and other disorders using enantiopure deuterium-enriched pioglitazone” (Poxel SA, priority 2014, dated 2021)
